Measured values reported in BindingDB's records for doi:10.1021/acs.biochem.5b00135 (Northwestern University, 2015).

Molecular target: T1, Nitric oxide synthase, inducible (Mus musculus, UniProt P29477)
T1 sequence (P29477 whole entry): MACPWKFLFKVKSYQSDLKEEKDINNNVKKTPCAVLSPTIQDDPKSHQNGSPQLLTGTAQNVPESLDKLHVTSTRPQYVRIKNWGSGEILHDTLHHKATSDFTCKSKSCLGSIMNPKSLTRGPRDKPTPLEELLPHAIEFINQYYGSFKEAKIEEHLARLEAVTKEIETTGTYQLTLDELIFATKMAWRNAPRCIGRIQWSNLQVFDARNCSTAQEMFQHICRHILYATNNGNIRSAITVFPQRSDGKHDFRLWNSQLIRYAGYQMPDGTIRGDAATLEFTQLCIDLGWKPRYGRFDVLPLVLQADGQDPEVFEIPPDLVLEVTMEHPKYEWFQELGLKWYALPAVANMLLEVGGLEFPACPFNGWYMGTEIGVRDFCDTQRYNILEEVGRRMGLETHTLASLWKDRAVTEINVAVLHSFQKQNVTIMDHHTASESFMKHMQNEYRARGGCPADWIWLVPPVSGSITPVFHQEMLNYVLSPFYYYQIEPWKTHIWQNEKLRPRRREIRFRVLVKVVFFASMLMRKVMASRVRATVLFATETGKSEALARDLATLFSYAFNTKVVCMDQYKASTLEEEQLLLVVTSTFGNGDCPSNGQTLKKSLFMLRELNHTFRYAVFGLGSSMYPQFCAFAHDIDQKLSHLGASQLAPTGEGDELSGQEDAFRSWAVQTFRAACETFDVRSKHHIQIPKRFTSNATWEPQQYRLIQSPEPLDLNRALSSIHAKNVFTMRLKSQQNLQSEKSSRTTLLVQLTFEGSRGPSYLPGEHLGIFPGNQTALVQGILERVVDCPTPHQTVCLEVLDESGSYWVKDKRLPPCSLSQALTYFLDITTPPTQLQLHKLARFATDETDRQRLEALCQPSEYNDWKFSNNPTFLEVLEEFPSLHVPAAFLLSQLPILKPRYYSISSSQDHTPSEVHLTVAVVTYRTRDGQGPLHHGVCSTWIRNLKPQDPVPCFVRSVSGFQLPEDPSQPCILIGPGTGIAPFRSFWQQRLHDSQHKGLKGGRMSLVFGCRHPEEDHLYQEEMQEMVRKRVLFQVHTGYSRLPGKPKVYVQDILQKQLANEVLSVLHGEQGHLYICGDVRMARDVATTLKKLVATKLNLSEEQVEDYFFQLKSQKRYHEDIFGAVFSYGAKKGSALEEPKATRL
Experiment: Hemoglobin Assay
Conditions: pH 7.4
Method: The assay mixture contained L-arginine (10 μM), NADPH (100 μM), oxyhemoglobin (0.125 mg/mL), tetrahydrobiopterin (10 μM), and different amounts ofinhibitors. The final volume was adjusted to 600 μL with 100 mM Hepes buffer (pH 7.4). The enzymatic reaction was initiated by addition of 10 μL of an iNOS stock, and the rate of NO production was monitored by the change in absorbance at 401 nm in the initial 60 s on a spectrophotometer at 37 °C.

CC(=N)NCCC[C@H](N)C(=O)O [(S)-5-Acetimidamido-2-aminopentanoic acid (4, L-NIO)]
Ki: 3.65 µM
